Chains of the proteins cited; added tags and fusions are not shown.
UniProt P0DMS8, whole entry: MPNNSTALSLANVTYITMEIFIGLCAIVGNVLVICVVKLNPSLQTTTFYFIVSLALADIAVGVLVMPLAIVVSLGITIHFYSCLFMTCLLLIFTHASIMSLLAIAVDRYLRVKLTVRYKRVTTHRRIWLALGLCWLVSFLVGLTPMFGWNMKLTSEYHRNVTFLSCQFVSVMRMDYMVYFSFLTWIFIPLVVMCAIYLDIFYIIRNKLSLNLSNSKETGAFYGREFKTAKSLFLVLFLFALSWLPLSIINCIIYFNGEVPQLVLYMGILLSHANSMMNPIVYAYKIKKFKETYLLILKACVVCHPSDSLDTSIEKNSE

In patent US7271171B2, “Adenosine A3 receptor modulators” (King Pharmaceuticals Research and Development, Inc., priority 1998, dated 2007):

Assays:
[1] = target: T1, human recombinant A3 adenosine receptor (Homo sapiens, UniProt P0DMS8); experiment: Human cloned A3 receptor binding, [3H] MRE3008-F20, CHO cells; settings: for hA1/hA3 / hA2A/hA3 / hA2B/hA3: selectivity ratio of Ki values
[2] = target: T2, adenosine A3 receptors in HL60 membranes (Homo sapiens, UniProt P0DMS8); experiment: Saturation binding of radioligand of Compound 108, HL60 membranes; settings: FIG. 5, n=3
T2 construct: endogenous in cells; host or cells: HL60 (promyelocytic human leukaemia)

[3] = target: T3, adenosine A3 receptors in Jurkat cell membranes (Homo sapiens, UniProt P0DMS8); experiment: Saturation binding of radioligand of Compound 108, Jurkat cell membranes; settings: FIG. 4, n=3
T3 construct: endogenous in cells; host or cells: Jurkat (human T-cell leukaemia)

[4] = target: human A3 receptors expressed in HEK 293 cells (Homo sapiens, UniProt P0DMS8); experiment: biochemical
[5] = target: A3 receptor in Jurkat cell membranes (Homo sapiens, UniProt P0DMS8); experiment: biochemical
[6] = target: T1, human recombinant A3 adenosine receptor; experiment: Human cloned A3 adenosine receptor binding assay, [125I]AB-MECA, HEK-293 membranes; settings: for rA1/hA3 / rA2A/hA3: selectivity ratio of Ki values

SMILES	hA1/hA3 [1]	hA2A/hA3 [1]	hA2B/hA3 [1]	other results
CN(C)c1ccc(NC(=O)Nc2nc3nn(C)cc3c3nc(-c4ccco4)nn23)cc1.Cl [Compound 103, N-[8-methyl-2-(2-furyl)-8H-pyrazolo[4,3-e][1,2,4]triazolo[1,5-c]pyrimidin-5-yl]-N′-[4-(dimethylamino)phenyl]urea hydrochloride]	667	667	40.6	
[3H]CC([3H])Cn1cc2c(nc(NC(=O)Nc3ccc(OC)cc3)n3nc(-c4ccco4)nc23)n1 (stereo not drawn) [radioligand of Compound 108, 5-[[(4-methoxyphenyl)amino]carbonyl]amino-8-(1,2-ditritiopropyl)-2-(2-furyl)-pyrazolo[4,3-e]1,2,4-triazolo[1,5-c]pyrimidine]				Kd [2]: 1.2 ± 0.1 nM; Kd [3]: 1.9 ± 0.2 nM
CNC(=O)[C@H]1O[C@@H](n2cnc3c(NCc4ccc(N)c([125I])c4)ncnc32)[C@H](O)[C@@H]1O [[^125I]AB-MECA, [^125I]N^6-(4-amino-3-iodobenzyl)adenosine-5′N-methyluronamide]				Kd [4]: 0.9 ± 0.01 nM; Kd [5]: 4 nM
CCCn1cc2c(nc(NC(=O)Nc3ccc(OC)cc3)n3nc(-c4ccco4)nc23)n1 [Compound 108, 5-[[(4-methoxyphenyl)amino]carbonyl]amino-8-propyl-2-(2-furyl)-pyrazolo[4, 3]-e-1 ,2,4-triazolo[1,5-c]pyrimidine]	4150	486		
CCCCn1cc2c(nc(NC(=O)Nc3ccc(OC)cc3)n3nc(-c4ccco4)nc23)n1 [Compound 49, 5-[[(4-Methoxyphenyl)amino]carbonyl]amino-8-butyl-2-(2-furyl)-pyrazolo[4,3-e]1,2,4-triazolo[1,5-c]pyrimidine]				rA1/hA3 [6]: 6,993; rA2A/hA3 [6]: 2,163
CCCn1cc2c(nc(NC(=O)Nc3ccc(OC)cc3)n3nc(-c4ccco4)nc23)n1 [Compound 47, 5-[[(4-Methoxyphenyl)amino]carbonyl]amino-8-propyl-2-(2-furyl)-pyrazolo[4,3-e]1,2,4-triazolo[1,5-c]pyrimidine]				affinity and selectivity for the A3 receptor subtype (in words) ([6]; discussion of Table 1): high affinity and selectivity; rA1/hA3 [6]: >34,482; rA2A/hA3 [6]: 6,872
CCN(CC)c1ccc(NC(=O)Nc2nc3nn(C)cc3c3nc(-c4ccco4)nn23)cc1 [Compound 101, N-[4-(diethylamino)phenyl]-N′-[2-(2-furyl)-8-methyl-8H -pyrazolo[4,3-e][1,2,4]triazolo[1,5-c]pyrimidin-5-yl]urea]	21.5	19.4	13.0	
CCN(CC)c1ccc(NC(=O)Nc2nc3nn(C)cc3c3nc(-c4ccco4)nn23)cc1.Cl [Compound 102, N-[8-methyl-2-(2-furyl)-8H-pyrazolo[4,3-e][1,2,4]triazolo[1,5-c]pyrimidin-5-yl]-N′-[4-(diethylamino)phenyl]urea hydrochloride]	35.8	31.2	14.5	Ki [1]: 19 nM
